UUG fidelity = modulators of yeast start codon fidelity, primary screen, whole organism, S. cerevisiae, single point, plate reader | S. cerevisiae UUG-firefly luciferase reporter, luminescence/redox ratio | activity score, % at 18.7 µM | hit rate 0.13% among 350,000;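 active = replicate mean at a twofold rise or more, about +100% in these data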;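 note: firefly luciferase made from a UUG start codon reports start codon fidelity; reporter light over untreated wells divided by growth signal over untreated wells; some hits fall short of that in this replicate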
esBAF inh = blocks esBAF chromatin remodeling in mouse ES cells; reporter increase, % at 12.5 µM; Bmi1-luciferase knock-in reporter, 24 h; 100% = twice the neutral-well signal; 350,000 tested, 2% active; in the data active means activation above about 40%;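 further: 0% = median of the plate's neutral control wells and 100% = double that signal; a rise in the Bmi1 reporter signal indicates esBAF inhibition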
Statin myotox sup = suppression of simvastatin myotoxicity; C2C12 myotubes + simvastatin, ATP luminescence, 48 h; scaled: DMSO 0, geranylgeraniol control 100; rescue of ATP level, % at 7.49 µM; 330,000 tested, 0.78% active; AID 602340;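 active means mean ATP rescue above about 67%, or every replicate alone reaching that limit, limit read from the data, passing the limit was not always enough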;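 further: myotubes were challenged with 10 µM simvastatin during compound exposure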
PGC1a acetyl inh = lowers PGC1a acetylation signal in U2OS cells | AlphaScreen anti-acetyl-lysine; with virally co-expressed GCN5 acetyltransferase | inhibition, % at 15.6 µM | 350,000 tested, 0.17% active | AID 651687;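 active means every replicate shows inhibition of at least 40%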;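 further: 0% = neutral control wells and 100% = positive control wells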
PglD DTNB = blocks C. jejuni PglD acetyltransferase activity. 360,000 tested, 0.098% active. inhibition, % at 12.5 µM. purified PglD enzyme, DTNB colorimetric CoA detection; in the data active means inhibition above about 16%, passing the limit was not always enough
E-selectin induc = induces E-selectin expression in human endothelial cells; HUVEC E-selectin immunofluorescence imaging; normalized: neutral wells 0, TNF-alpha wells 100; activation, % at 7.58 µM; 260,000 tested, 0.37% active; AID 686992;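 active means mean E-selectin-positive cell signal at least 10% of the positive control, reached in at least 60% of replicates, without over 20% cell loss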
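Test system: HUVEC; input: 3,000 HUVEC/well; measured by: immunofluorescence imaging; read-out: % PE-positive cells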
* hit, by the source's call; / = no result; ! = not active in a repeat. Rows were chosen to be rich in hits. Some 2.8% of all compounds tested hit in one or more screens of this group.

entry	structure	Statin myotox sup	esBAF inh	E-selectin induc
1	COCCOC(=O)C1=C(C)NC(=O)NC1C1CC=CCC1 (stereo not drawn)	11	-9	/
2	C=CCOC(=O)C1=C(C)NC(=O)NC1C1CC=CCC1 (stereo not drawn)	117*	-4	/
3	O=[N+]([O-])c1cccn2cc(-c3ccc(Br)cc3)nc12	1	58*	1
4	COC(=O)c1ccc(COc2ccc3c(C)c(C)c(=O)oc3c2C)o1	/	23*	/
5	Cc1c(OCc2ccc(C(=O)O)o2)ccc2c3c(c(=O)oc12)CCC3	-8	-2	/
6	Cc1ccc(C2C=C(c3ccccc3OC(F)F)Nc3ncnn32)cc1 (stereo not drawn)	107*	6	/
7	Cc1cccc(S(=O)(=O)N2CC[C@@H]3[C@H]2c2cc(C4=CCCCC4)ccc2N[C@@H]3CO)c1	-2	1	0
8	C[C@H]1CN([C@@H](C)CO)C(=O)c2cccc(NC(=O)Nc3ccc(C(F)(F)F)cc3)c2O[C@@H]1CN(C)S(=O)(=O)c1ccc(Cl)cc1	113*!	-2	0
9	C[C@@H]1CN([C@@H](C)CO)C(=O)c2cccc(NC(=O)c3ccncc3)c2O[C@@H]1CN(C)S(=O)(=O)c1ccc(Cl)cc1	73*	2	/
10	C[C@@H]1CN([C@@H](C)CO)C(=O)c2cccc(NC(=O)Nc3ccc(C(F)(F)F)cc3)c2O[C@H]1CN(C)S(=O)(=O)c1ccc(Cl)cc1	-5	-3	/

entry	PglD DTNB	UUG fidelity	PGC1a acetyl inh
1	-3	3	-2
2	/	/	2
3	1	-10	-3
4	4	1	/
5	-6	-14	-2
6	-3	-19	0
7	-3	-12	-6
8	6	-15	-10
9	0	-2	-1
10	10	-11	-11

(more compounds)
entry	structure	Statin myotox sup	esBAF inh	E-selectin induc
11	C[C@H](CO)N1C[C@H](C)[C@@H](CN(C)S(=O)(=O)c2ccc(Cl)cc2)Oc2c(NC(=O)Nc3ccc(C(F)(F)F)cc3)cccc2C1=O	102*	4	/
12	C[C@H](CO)N1C[C@H](C)[C@@H](CN(C)CC2CCCCC2)Oc2ccc(NC(=O)Nc3ccc(C(F)(F)F)cc3)cc2C1=O	23	5	/
13	CCC(=O)N1CC2(CCN(Cc3ccc(F)cc3)CC2)c2c(n(C)c3cc(OC)ccc23)[C@@H]1CO	/	/	0
14	CCOC(=O)C(C)n1nc(/C=C/c2ccccc2)ccc1=O (stereo not drawn)	118*	13	/
15	COC(=O)c1ccc(/C=C2/SC(=S)N(CCC(=O)N3CCOCC3)C2=O)cc1	71*	8	/
16	COC(=O)c1ccc(/C=C2\SC(=S)N(CCCC(=O)N3CCOCC3)C2=O)cc1	-4	-3	0
17	Cc1ccc(-c2noc(/C=C/c3ccccc3)n2)cc1	-16	46*	/
18	CC(C)(CO)N=Cc1c(O)[nH]c2ccccc12	5	0	/
19	Cc1cccc(/N=C/c2sc3ccccc3c2O)n1	1	16	/
20	Cc1cccc(/N=C/c2c(O)[nH]c3ccccc23)n1	8	74*	/

entry	PglD DTNB	UUG fidelity	PGC1a acetyl inh
11	-4	-17	-2
12	5	-3	-1
13	/	/	-2
14	/	-4	-1
15	-3	3	-1
16	-1	-21	1
17	1	-16	-2
18	3	8	12
19	3	-13	6
20	/	/	-37

(further entries)
entry	structure	Statin myotox sup	esBAF inh	E-selectin induc
21	CC(C)N=Cc1c(O)[nH]c2ccccc12	83*	1	/
22	COc1ccc(NC(=O)N[C@H]2CC[C@H](CC(=O)NCc3ccccn3)O[C@H]2CO)cc1	12	0	0
23	COc1ccc(CN(C)C[C@H]2OCCCC[C@H](C)Oc3ccc(NS(=O)(=O)c4ccc(Cl)cc4)cc3C(=O)N([C@@H](C)CO)C[C@@H]2C)cc1	/	-1	/
24	O=C(COC(=O)Cn1cnc2ccccc21)Nc1cc2c(cc1Cl)C(=O)c1ccccc1C2=O	11	52*	/
25	CC(C)OC(=O)Cn1nnc2c(cnn2-c2ccccc2)c1=O	-5	47*	/
26	COc1ccc(-c2cn(CC[C@H]3CC[C@H](NC(=O)Nc4ccc(F)cc4)[C@@H](CO)O3)nn2)cc1	/	/	0
27	COc1ccc(Oc2coc3c(CN(C)C)c(O)ccc3c2=O)cc1	118*	-7	/
28	Cc1cc(C)c2cc(C(=O)Nc3ccc4c(c3)OCO4)[nH]c2c1	/	/	0
29	CCCOc1ccc(NC(=O)c2cc3cc(C)ccc3[nH]2)cc1	-15	16	/
30	Cc1ccc2[nH]c(C(=O)Nc3ccc(F)cc3)cc2c1	-8	62*	/

entry	PglD DTNB	UUG fidelity	PGC1a acetyl inh
21	0	-1	-69
22	2	0	2
23	3	23	8
24	-5	-13	/
25	1	-18	14
26	/	/	-3
27	8	-20	-4
28	/	/	/
29	3	-5	2
30	3	-1	-14

(more compounds)
entry	structure	Statin myotox sup	esBAF inh	E-selectin induc
31	Cc1cc(C)c2cc(C(=O)Nc3ccccc3)[nH]c2c1	-6	60*	0
32	COc1ccc2c3c(n(C)c2c1)[C@@H](CO)NCC31CCN(S(=O)(=O)c2cccc(C)c2)CC1	/	/	0
33	C[C@H]1CN([C@@H](C)CO)C(=O)c2cc(NC(=O)Cn3cnnn3)ccc2O[C@@H]1CN(C)S(=O)(=O)c1ccc(Cl)cc1	19	-1	0
34	COc1ccc2nc(-c3ccccc3)[nH]c(=O)c2c1	-1	44*	1
35	COc1ccc2nc(-c3ccccc3)nc(SC)c2c1	-14	47*	-1
36	COc1ccc2nc(C)[nH]c(=O)c2c1	-5	-2	/
37	O=C(Nc1cccnc1)c1cn(-c2ccccc2)nc1-c1cccs1	9	58*	/
38	CSc1ccccc1NC(=O)c1cc(-c2ccc3c(c2)OCO3)on1	1	48*	2
39	O=C(Nc1cc(Br)ccc1O)c1cc(-c2ccc3c(c2)OCO3)on1	-23	46*	/
40	CC(C)CNC(=O)c1cc(-c2ccc3c(c2)OCO3)on1	8	3	-2

entry	PglD DTNB	UUG fidelity	PGC1a acetyl inh
31	4	-11	-18
32	/	/	-10
33	/	/	3
34	2	-20	7
35	1	-12	-8
36	4	-7	/
37	/	/	-31
38	-2	-22	/
39	-1	1	/
40	-9	-23	/

By substructure: those above with a CF3 group.
entry	structure	Statin myotox sup	esBAF inh	E-selectin induc
8	C[C@H]1CN([C@@H](C)CO)C(=O)c2cccc(NC(=O)Nc3ccc(C(F)(F)F)cc3)c2O[C@@H]1CN(C)S(=O)(=O)c1ccc(Cl)cc1	113*!	-2	0
10	C[C@@H]1CN([C@@H](C)CO)C(=O)c2cccc(NC(=O)Nc3ccc(C(F)(F)F)cc3)c2O[C@H]1CN(C)S(=O)(=O)c1ccc(Cl)cc1	-5	-3	/
11	C[C@H](CO)N1C[C@H](C)[C@@H](CN(C)S(=O)(=O)c2ccc(Cl)cc2)Oc2c(NC(=O)Nc3ccc(C(F)(F)F)cc3)cccc2C1=O	102*	4	/
12	C[C@H](CO)N1C[C@H](C)[C@@H](CN(C)CC2CCCCC2)Oc2ccc(NC(=O)Nc3ccc(C(F)(F)F)cc3)cc2C1=O	23	5	/

entry	PglD DTNB	UUG fidelity	PGC1a acetyl inh
8	6	-15	-10
10	10	-11	-11
11	-4	-17	-2
12	5	-3	-1

(next part)
entry	structure	Statin myotox sup	esBAF inh	E-selectin induc
41	CN(C(=O)c1cc(-c2ccc3c(c2)OCO3)on1)c1ccccc1	5	68*	/
42	CCC(=O)Nc1ccc2c(c1)OC[C@@H](C)N(C(=O)CN(C)C)C[C@@H](C)[C@H](OC)CN(C)C2=O	-5	1	0
43	O=C(c1ccc2c(c1)OCO2)N1CC2(C1)[C@@H](c1ccccc1)[C@@H](CO)N2C(=O)C1CC1	/	/	0
44	CCOc1ccc2c(c1)nc(SCC(=O)c1ccc(Br)s1)n2C	70*	-11	/
45	COc1ccc(NC(=O)N[C@@H]2CC[C@H](CC(=O)NCc3ccccn3)O[C@@H]2CO)cc1	2	0	0
46	O=C(Nc1cc(Cl)cc(Cl)c1)N[C@H]1CC[C@H](CCNS(=O)(=O)c2cccc(F)c2)O[C@@H]1CO	15	-4	0
47	Clc1ccc(OCc2noc(-c3ccsc3)n2)c(Cl)c1	-4	64*	0
48	CC(=NNc1ccc([N+](=O)[O-])cn1)c1ccc(N)cc1	-6	97*	0

entry	PglD DTNB	UUG fidelity	PGC1a acetyl inh
41	-2	-20	/
42	-3	-18	-4
43	/	/	-6
44	-6	-24	4
45	0	-7	-12
46	2	5	2
47	/	/	1
48	1	-14	4

Source: PubChem BioAssay (Broad Institute)
